The results in this text go back to the Kinase Knowledgebase extract (Sharma et al. 2016).

Chains of the proteins cited; added tags and fusions are not shown.
UniProt Q16539, whole entry, looked up: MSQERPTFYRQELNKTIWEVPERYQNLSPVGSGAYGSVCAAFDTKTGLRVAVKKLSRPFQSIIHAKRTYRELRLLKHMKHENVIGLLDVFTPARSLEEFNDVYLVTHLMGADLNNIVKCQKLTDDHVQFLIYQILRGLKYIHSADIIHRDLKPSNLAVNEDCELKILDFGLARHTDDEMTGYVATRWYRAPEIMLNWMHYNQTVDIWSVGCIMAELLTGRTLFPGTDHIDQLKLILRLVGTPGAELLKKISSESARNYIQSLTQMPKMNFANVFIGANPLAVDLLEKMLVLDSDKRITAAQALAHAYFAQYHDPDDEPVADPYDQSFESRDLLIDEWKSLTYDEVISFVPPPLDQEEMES

This experiment deals with MAPK14 (human) (UniProt Q16539). Description: Inhibition of LPS Stimulated TNF Production by U937 Cells. As to conditions: concentration not given here.
On to `C[C@H](NC(=O)c1cccc2ccccc12)c1[nH]nc(-c2ccc(F)cc2)c1-c1ccncc1`, for which the inhibition (in general, the drop in the measured response relative to a control, in per cent) was determined as 25%.
The result for `C[C@H](NS(=O)(=O)N(C)C)c1[nH]nc(-c2ccc(F)cc2)c1-c1ccncc1` reads 80%; that for `C[C@H](NC(=O)Nc1ccccc1)c1[nH]nc(-c2ccc(F)cc2)c1-c1ccncc1`, 45%.
